TDP1 inh: blocks human tyrosyl-DNA phosphodiesterase 1. hit rate 0.28% among 350,000. recombinant TDP1, AlphaScreen DNA substrate cleavage. Potency, µM (doses to about 130 µM), hits mostly inhibitors. Q9NUW8. AID 485290; also: nearly all actives have a fitted effect of over 40% in size
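Compounds were preincubated with Tdp1 (1 nM final) for 15 min at room temperature before substrate (15 nM final) started a 5 min reaction; beads (10 ug/ml final) were then added for 10 min before AlphaScreen detection.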
DT40 TDP1 no CPT: qHTS for Inhibitors of human tyrosyl-DNA phosphodiesterase 1 (TDP1): qHTS in cells in absence of CPT. AID 686978, 2013. hit rate 15% among 420,000. DT40 Tdp1-/- hTDP1 cells, no CPT, ATP luminescence, 48 h. Potency, µM (top dose mostly 46.2 µM), most hits filed as inhibitors; also: nearly all actives have a fitted effect of over 55% in size
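Seeded 400 DT40-hTDP1 cells/well (vehicle DMSO, no 20 nM CPT); pinned compounds; ≥48 hr at 37 °C; CellTiter-Glo luminescence as viability measure.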
uPA generation: cell surface uPA generation inhibition; cell surface uPA generation assay, qHTS; Potency, µM (doses to about 38.3 µM), usual class: inhibitors; hit rate 0.31% among 330,000; AID 540303; active = well fitted inhibition curve with a large enough effect; inconclusive = small, poorly fitted or top-dose-only effect; inactive = no such curve, though single readings can be large or run the other way; tested in mouse RAW 264.7 cells; also: nearly all actives have a fitted effect of over 55% in size
DT40 TDP1 CPT: growth inhibition of DT40 Tdp1-/-;hTDP1 cells with camptothecin (screen for TDP1 inhibitors); chicken DT40 Tdp1-/-;hTDP1 cells + 20 nM CPT, ATP luminescence, 48 h; hit rate 12% among 420,000; Potency, µM (titrated, usually from 46.2 µM), actives largely listed as inhibitors; also: nearly all actives have a fitted effect of over 55% in size
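Chicken DT40 Tdp1-/- cells complemented with human TDP1, 400 cells/well, exposed to compounds plus 20 nM camptothecin for at least 48 h at 37 C; viability read as ATP content by CellTiter-Glo luminescence.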
miR-21 reporter: miR-21 reporter, rising signal. 340,000 tested, under 10 active. Potency, µM (highest dose often 38.3 µM). HeLa miR-21 FLuc reporter, luciferase, 48 h. AID 2288; active = well fitted rising curve with a large enough effect; inconclusive = small, poorly fitted or top-dose-only effect; inactive = no such curve, though single readings can be large or run the other way;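 further: miR-21 action dims this reporter so a rising signal means less miR-21 action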
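Using DMEM plus 10% FBS, HeLa miR-21-FLuc cells are incubated with test compounds (final up to about 40uM) for 48 hours; firefly luciferase signal is then imaged following reagent-mediated lysis.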
A number is an active result; i = inactive; ? = inconclusive; nt = not tested or not shown. Only some compounds are listed: those with a hit (about 16% of all), similar ones and a draw of the others. Unless noted, calls follow the shape of the dose curve; as a rule, active = well fitted curve in the direction sought with a large enough effect; inconclusive = small, poorly fitted or top-dose-only effect, or another doubt; inactive = no such curve, though single readings can be large; an effect the other way counts as inactive or inconclusive.

SMILES	TDP1 inh	DT40 TDP1 no CPT	uPA generation	DT40 TDP1 CPT	miR-21 reporter
O=C(O)CSCC(=O)NCc1csc2ccc(Cl)cc12	i	i	i	i	i
Cc1ccccc1NC(=O)c1cccc(S(=O)(=O)Nc2cccc(C(=O)O)c2)c1	nt	i	i	i	i
Cc1ccc(C(=O)Nc2ccc(S(=O)(=O)O)c3cc(S(=O)(=O)O)cc(S(=O)(=O)O)c23)cc1NC(=O)c1cccc(NC(=O)Nc2cccc(C(=O)Nc3cc(C(=O)Nc4ccc(S(=O)(=O)O)c5cc(S(=O)(=O)O)cc(S(=O)(=O)O)c45)ccc3C)c2)c1	4.5µM	?	nt	i	nt
Cc1cccc(C)c1N1CCN(S(=O)(=O)c2ccc(F)cc2)CC1	i	16µM	i	?	i
CC1CC1C(=O)N1CCN(S(=O)(=O)c2cc(C(F)(F)F)cc(C(F)(F)F)c2)CC1 (stereo unspecified)	i	?	i	16µM	nt
COc1ccc(S(=O)(=O)N2CCC(O)(c3ccc(Cl)cc3)CC2)cc1	i	i	i	i	i
CC(C)(C)c1ccc(S(=O)(=O)N2CCC(O)(c3ccc(Cl)cc3)CC2)cc1	i	18µM	i	?	i
CC(C)(C)c1ccc(S(=O)(=O)N2CCN(C(=O)C3CCC3)CC2)cc1	i	18µM	i	8.2µM	i
O=C(CCC1CCCCC1)NCCS(=O)(=O)N1CCN(c2ccccc2)CC1	nt	i	i	?	nt
CC(C)C(=O)N1CCN(C2=NS(=O)(=O)c3ccccc32)CC1	i	?	i	?	i
CCCCCCCCCCCCCCCCCCCCCCO	i	i	nt	i	nt
CC(C)(C)c1ccc(S(=O)(=O)N2CCN(C(=O)C3=COCCO3)CC2)cc1	i	?	i	29µM	nt
CC(=O)N1CCC(C(=O)N2CCN(S(=O)(=O)c3ccc(F)cc3)CC2)CC1	i	18µM	i	i	i
Cn1c(=O)c(=O)n(C)c2cc(S(=O)(=O)N3CCCCC3)ccc21	i	i	nt	i	i
COc1cccc(OCC(O)CN2CCN(C)CC2)c1 (stereo unspecified)	nt	i	i	i	i
Cc1cc(C)cc(OCC(O)CN2CCC(CN3C(=O)c4cccc5cccc(c45)C3=O)CC2)c1 (stereo unspecified)	i	?	i	15µM	i
O=C1c2cccc3cccc(c23)C(=O)N1CC1CCN(CC(O)COc2ccc3ccccc3c2)CC1 (stereo unspecified)	i	12µM	?	15µM	i
CCc1ccc(OCC(O)CN2CCC(CN3C(=O)c4cccc5cccc(c45)C3=O)CC2)cc1 (stereo unspecified)	i	21µM	i	15µM	i
COc1cccc(OCC(O)CN2CCC(CN3C(=O)c4cccc5cccc(c45)C3=O)CC2)c1 (stereo unspecified)	i	7.3µM	i	8.2µM	i
CCCOC(=O)Cn1cnc2scc(-c3ccc(C)cc3)c2c1=O	i	i	i	i	i
CCOC(=O)N1CCN(C(=O)CSCc2nc(-c3ccccc3C)oc2C)CC1	i	?	nt	?	i
O=C1c2cccc3cccc(c23)C(=O)N1CCN1CCN(CC(O)COc2ccc3ccccc3c2)CC1 (stereo unspecified)	i	10µM	i	18µM	i
COc1ccc(COCC(O)CN2CCC(C(N)=O)CC2)cc1OC (stereo unspecified)	i	i	i	i	i
COc1ccc(COCC(O)CN2CCC(CN3C(=O)c4cccc5cccc(c45)C3=O)CC2)cc1OC (stereo unspecified)	i	21µM	i	?	i
CCc1cc(C(=O)NC2CCCc3c2cnn3-c2cccc(C)c2C)n(C)n1 (stereo unspecified)	i	0.16µM	i	0.21µM	i
Cc1cccc(-n2ncc3c2CCCC3NC(=O)C2=CC(=O)CC(C)(C)O2)c1C (stereo unspecified)	i	8.2µM	i	4.6µM	i
Cc1cc(C)c(C(=O)NC2CCCc3c2cnn3-c2cccc(C)c2C)o1 (stereo unspecified)	i	?	i	21µM	i
Cc1cc(C)cc(-n2ncc3c2CCCC3NC(=O)C2(C(N)=O)CC2)c1 (stereo unspecified)	i	?	i	?	?
